Earlier results on 1 molecule are cited in patent publication US20160281133A1, “STABILIZATION AND ISOLATION OF EXTRACELLULAR NUCLEIC ACIDS” (QIAGEN GMBH, priority 2013, published 2016).

What is called IC50 is the concentration that inhibits the measured activity by half.

This series relates to protein tyrosine phosphatase. To be noted: cited from earlier work.

On to `O=[As]c1ccccc1` (stereo not shown), for which the IC50 is 18 µM.
